This experiment addresses 11β-HSD1 (Homo sapiens, UniProt P28845). Briefly: In vitro inhibition of 11β-HSD1, HTRF detection of cortisol generated from cortisone by human liver microsomes. The class given is biochemical. Conditions: read-out: 11β-HSD IC50, 1 hour at 37° C., pH 6.0, NADPH 200 μM, cortisone 80 nM, inhibition relative to carbenoxolone signal. How it is done: Cortisol generated in the reaction is then detected with a competitive immunoassay, involving two HTRF conjugates: cortisol linked to XL665 and anti-cortisol antibody labeled with Europium cryptate. The incubation period for detection reaction was typically 2 hours. […] The ratio of the two emission signals is then calculated (Em665*10000/Em615). […] Each assay also contained a calibration curve with cortisol to transform the fluorescent data into cortisol concentrations. Percent inhibition of each compound was determined relative to the carbenoxolone signal and IC50 curves were generated.

The chains behind the UniProt entries cited, without tags or fusion partners.
UniProt P28845, whole entry: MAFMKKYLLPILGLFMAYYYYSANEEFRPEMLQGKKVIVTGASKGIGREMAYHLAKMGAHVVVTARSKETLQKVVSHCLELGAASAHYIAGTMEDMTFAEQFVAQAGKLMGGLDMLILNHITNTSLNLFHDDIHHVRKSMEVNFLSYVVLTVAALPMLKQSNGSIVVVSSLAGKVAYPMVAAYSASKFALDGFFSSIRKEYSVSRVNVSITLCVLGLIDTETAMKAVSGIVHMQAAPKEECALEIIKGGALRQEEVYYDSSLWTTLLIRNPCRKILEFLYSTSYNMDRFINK

Turning to `CC1(C)[C@H]2Cc3cc4nc([C@H]5CCCO5)[nH]c4cc3[C@]1(C)CCN2C(=O)c1ccc2nc[nH]c2c1`, the IC50 worked out at 61 nM.
